Only a part is listed here, and it is no random draw. Active and inactive are the calls of the source.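 How the source made its calls: active means mean inhibition across duplicate retests at 20 µM reaching about 50% (limit read from the data); inactive means the rest, inconclusive results apart.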
Biological target: Runt-related transcription factor 1 (Homo sapiens) + Core-binding factor subunit beta (Homo sapiens) (UniProt Q01196+Q13951)
Assay: disruptors of Runt domain/CBFb-SMMHC interaction – biochemical, FRET, Cerulean-Runt, Venus-CBFb-SMMHC, uHTS, primary screen (AID 1434);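 further: 0% = DMSO wells and 100% = wells with excess untagged CBFb-SMMHC; inhibitors lower the FRET ratio by blocking Runt binding to CBFb-SMMHC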
Details: Cerulean-Runt/Venus-CBFb-SMMHC FRET ratio 530/480, 1 h; at 20 µM; active compounds read high

Amino acid sequences for entries named in this document (tags omitted).
UniProt Q01196, whole entry, looked up: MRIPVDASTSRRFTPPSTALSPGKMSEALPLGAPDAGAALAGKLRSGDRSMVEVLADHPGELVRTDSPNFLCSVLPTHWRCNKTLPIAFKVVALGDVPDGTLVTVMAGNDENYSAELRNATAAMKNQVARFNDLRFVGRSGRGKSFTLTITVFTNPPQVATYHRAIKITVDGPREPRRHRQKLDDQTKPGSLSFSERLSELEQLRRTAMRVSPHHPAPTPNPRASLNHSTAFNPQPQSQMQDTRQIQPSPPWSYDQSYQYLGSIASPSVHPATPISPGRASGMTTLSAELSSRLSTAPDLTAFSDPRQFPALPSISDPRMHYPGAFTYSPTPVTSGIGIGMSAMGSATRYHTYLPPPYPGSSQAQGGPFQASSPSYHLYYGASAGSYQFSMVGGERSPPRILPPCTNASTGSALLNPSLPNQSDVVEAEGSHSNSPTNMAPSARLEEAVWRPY
UniProt Q13951, whole entry, looked up: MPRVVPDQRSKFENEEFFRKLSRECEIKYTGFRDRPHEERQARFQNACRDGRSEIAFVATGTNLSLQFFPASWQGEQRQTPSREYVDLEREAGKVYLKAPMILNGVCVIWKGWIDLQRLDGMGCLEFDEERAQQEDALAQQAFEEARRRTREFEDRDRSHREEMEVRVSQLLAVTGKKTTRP

Row | Compound | inhibition
1 | COc1ccc(OP(C)(=O)Nc2ccc(Br)cc2)cc1 (stereo not drawn) | inactive: 3%
2 | CCN(CC)CC(O)COC(=O)C(O)(c1ccccc1)C1CCCCC1 (stereo not drawn) | inactive: 0.7%
3 | O=C(OCCCN1CCCC1)C(O)(c1ccccc1)C1CCCCC1 (stereo not drawn) | inactive: -5.6%
4 | COc1ccccc1OP(C)(=O)Nc1c(C)n(C)n(-c2ccccc2)c1=O (stereo not drawn) | inactive: 1%
5 | CCc1ccc(OP(C)(=O)Nc2cccnc2)cc1 (stereo not drawn) | inactive: -2.5%
6 | CP(=O)(Oc1ccccc1)N1CCOC1=O (stereo not drawn) | inactive: 2.6%
7 | COc1ccccc1OP(C)(=O)Nc1ccccc1Br (stereo not drawn) | inactive: -1.8%
8 | CC(C)(C)c1ccc(OP(C)(=O)O)cc1 | inactive: -3.7%
9 | CP(=O)(Nc1ccc(Cl)cc1)Oc1ccc(F)cc1 (stereo not drawn) | inactive: 0.4%
10 | CN(C)C(=O)c1c([N+](=O)[O-])cc([N+](=O)[O-])cc1[N+](=O)[O-] | inactive: -3.3%
11 | CCOC(=O)c1ccc(NP(C)(=O)Oc2ccc(Cl)cc2)cc1 (stereo not drawn) | inactive: -0.5%
12 | CP(=O)(OC12CC3CC(CC(C3)C1)C2)OC12CC3CC(CC(C3)C1)C2 | inactive: 1.3%
13 | Cc1cc(C)cc(OP(C)(=O)Nc2cccc(C(F)(F)F)c2)c1 (stereo not drawn) | inactive: -4.9%
14 | COc1ccccc1OP(C)(=O)Nc1ccc(C)c(C)c1 (stereo not drawn) | inactive: -1%
15 | COc1ccc(OP(C)(=O)Nc2ccccc2Br)cc1 (stereo not drawn) | inactive: 1.1%
16 | Cc1nc2ccc3ccccc3c2o1.O=[N+]([O-])c1cc([N+](=O)[O-])c(O)c([N+](=O)[O-])c1 | inactive: -4.6%
17 | CP(=O)(Nc1ccc(Cl)cc1Cl)Oc1ccccc1 (stereo not drawn) | inactive: -1.1%
18 | CP(=O)(OCCOc1ccccc1)OCCOc1ccccc1 | inactive: 3.4%
19 | COc1ccccc1OP(C)(=O)Nc1ccc(Br)cc1 (stereo not drawn) | inactive: -0.3%
20 | COc1ccc(OP(C)(=O)Nc2ccccn2)cc1 (stereo not drawn) | inactive: 3.2%
21 | CN(C)CCOC(=O)C(O)(c1ccccc1)C1CCCC1 (stereo not drawn) | inactive: -3.9%
22 | Cc1c(NP(C)(=O)Oc2ccc(C(C)C)cc2)c(=O)n(-c2ccccc2)n1C (stereo not drawn) | inactive: -9.2%
23 | O=[N+]([O-])c1cc([N+](=O)[O-])c(Nc2ccccn2)c([N+](=O)[O-])c1 | inactive: -0.1%
24 | COc1ccccc1OP(C)(=O)Nc1ccc(C)cc1C (stereo not drawn) | inactive: -1.9%
25 | CP(=O)(Nc1ccccn1)Oc1ccccc1 (stereo not drawn) | inactive: 0.9%
26 | CP(=O)(Nc1ccccc1F)Oc1ccccc1 (stereo not drawn) | inactive: 7.1%
27 | CC(C)c1ccc(OP(C)(=O)Nc2ccc(SC(F)(F)F)cc2)cc1 (stereo not drawn) | inactive: -2.7%
28 | O=C(OC1CN2CCC1CC2)c1ccc([N+](=O)[O-])cc1 (stereo not drawn) | inactive: 0.4%

Source: PubChem BioAssay AID1434 (Sanford-Burnham Center for Chemical Genomics, 2008)
